In this assay the test system is human lung carcinoma xenografts. As to the kind of experiment: Lung tumor xenograft nude mouse model. The class given is in vivo, nude mice. As to conditions: A549 implanted S.C., I.P. on day 1, 3 and 7, taxol-2'-MPT 23.9 mg/kg; preliminary data; 0.001 p-value different from controls.

`CC(=O)O[C@H]1C(=O)[C@@]2(C)[C@H]([C@H](OC(=O)c3ccccc3)[C@]3(O)C[C@H](OC(=O)[C@H](Oc4cccc[n+]4C)[C@@H](NC(=O)c4ccccc4)c4ccccc4)C(C)=C1C3(C)C)[C@]1(OC(C)=O)CO[C@@H]1C[C@@H]2O` [compound 2, Taxol-2'-MPT]: the “control of tumor growth” value was “at least comparable to that of taxol”.

For the origin of these results see patent EP0739343B1, “WATER SOLUBLE ONIUM SALT OF TAXO-DITERPENOID” (THE SCRIPPS RESEARCH INSTITUTE, priority 1994, dated 1995).
